Source: patent US20080220497A1, “Modulation of protein functionalities” (priority 2003, published 2008)
pIC50: −log10 of the molar value.

The chains behind the UniProt entries cited, without tags or fusion partners. A line that says so, or that is headed by a name, gives the form on record, which may keep a tag or linker.
UniProt Q16539, with tags, fused parts or gaps DEL261-261: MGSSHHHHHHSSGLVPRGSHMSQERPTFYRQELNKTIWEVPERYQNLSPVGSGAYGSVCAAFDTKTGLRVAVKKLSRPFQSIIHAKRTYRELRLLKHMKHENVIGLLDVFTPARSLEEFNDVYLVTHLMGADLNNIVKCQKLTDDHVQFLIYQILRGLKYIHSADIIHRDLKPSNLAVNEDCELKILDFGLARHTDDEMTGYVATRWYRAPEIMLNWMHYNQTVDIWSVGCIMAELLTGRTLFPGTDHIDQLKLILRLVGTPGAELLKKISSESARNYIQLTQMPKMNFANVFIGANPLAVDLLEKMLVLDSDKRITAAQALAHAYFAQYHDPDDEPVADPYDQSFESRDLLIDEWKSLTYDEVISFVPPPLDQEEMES
UniProt Q16539, with tags, fused parts or gaps: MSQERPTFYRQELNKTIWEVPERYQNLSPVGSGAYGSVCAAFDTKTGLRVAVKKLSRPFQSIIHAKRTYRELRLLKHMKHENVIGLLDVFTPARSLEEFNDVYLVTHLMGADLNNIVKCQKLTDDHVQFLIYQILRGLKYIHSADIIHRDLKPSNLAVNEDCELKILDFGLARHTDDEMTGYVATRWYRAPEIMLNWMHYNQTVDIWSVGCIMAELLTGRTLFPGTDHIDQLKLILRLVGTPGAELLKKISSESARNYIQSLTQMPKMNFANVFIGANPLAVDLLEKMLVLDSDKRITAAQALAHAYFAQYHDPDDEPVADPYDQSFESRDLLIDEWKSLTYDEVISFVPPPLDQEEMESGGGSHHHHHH

Assays:
Assay type in all cases: binding
[1] = biological target: T1, unphosphorylated p38-alpha kinase (Homo sapiens, UniProt Q16539, DEL261-261); assay: Fluorescence affinity assay, unphosphorylated p38-alpha kinase
T1 construct: 48 (6×His-TEV tag, full length); 6×His-TEV tag (N); purchased Decode Genetics, Inc; host or cells: E. coli
Excerpt: (§1) This fluorescence affinity assay is utilized in an affinity-based screen to identify small molecules which bind into switch control pockets of protein kinases. Binding of small molecule switch inhibitors displaces the switch control ligand phenylalanine of the DFG motif into an orientation which sterically blocks the ATP pocket. Such inhibitor-induced blockade of the ATP pocket is registered as an inhibition of binding of the fluoroprobe into the ATP pocket.
(§2) • 1. p38-alpha kinase • a. […] Polarstar Optima plate reader (BMG)
• 1. […] This dilution can be done automatically on a Tecan (or similar) robotic workstation or performed manually. • 3. […] Read at emission wavelength 420 nm upon excitation at 340 nm.
The reaction was initiated by addition of the enzyme. […] By comparison of RFU (relative fluorescence units) values with that of a control (in the absence of small molecule modulators), the percentage of inhibition at each concentration of the small molecules was calculated. IC50 values for the small molecule modulators were calculated from the % inhibition values obtained at a range of concentrations of the small molecule modulators using Prism (available from GraphPad, Inc.). When time-dependent inhibition was assessed, the plate was read at multiple reaction times such as 0.5, 1, 2, 3, 4 and 6 hours. The IC50 values were calculated at each time point. […]

[2] = biological target: T2, doubly phosphorylated p38-alpha kinase (Homo sapiens, UniProt Q16539); assay: Fluorescence affinity assay, doubly phosphorylated p38-alpha kinase
T2 construct: 6xHis ([…], seen only in the listing) (C); purchased Roche Applied Diagnostics
Excerpt: as §1, §2
• 1. […] This dilution can be done automatically on a Tecan (or similar) robotic workstation or performed manually. • 3. Mix Solution A with the diluted compound solutions following Step 3 of Table 22. This step can be performed automatically on a Tecan (or similar) robotic workstation or performed manually. • 4. Incubate at 30° C. or room temp for 2 h, depending on protein stability. • 5. Read at emission wavelength 420 nm upon excitation at 340 nm. […]
A ratio greater than 1.0 indicates a preference for inhibiting the unphosphorylated form of p38-alpha kinase relative to the doubly phosphorylated form. A ratio less than 1.0 indicates a preference for inhibiting the doubly phosphorylated form of p38-alpha kinase relative to the unphosphorylated form.

[3] = biological target: T1, unphosphorylated p38-alpha kinase; assay: Thermal denaturation of unphosphorylated p38-alpha kinase; details: 15 μM small molecule
Excerpt: (§3) Denaturation was monitored by measuring the absolute absorbance of the solutions at an appropriate wavelength (typically 230 nm and 240 nm) as a function of temperature. As the protein became denatured, additional UV absorbing functional groups became exposed causing an increase in absorbance at the melting temperature. […] The thermal data were collected using Agilent spectrophotometers and ChemStation UV/Vis Thermal Denaturation software.
The final protein and buffer solution was mixed gently using a pipetter to minimize denaturing due to over aggressive mixing. The final solution was transferred to a 50 μL cuvette for analysis.
The final solution was transferred to a 50 μL cuvette for analysis.
(§4) A first derivative calculation with data smoothing was applied to the resulting data to report the point of inflection as the melting temperature.

[4] = biological target: T2, doubly phosphorylated p38-alpha kinase; assay: Thermal denaturation of doubly phosphorylated p38-alpha kinase; details: 0.5 μM p38-alpha kinase, 20 μM small molecule
Method: as §3
The final concentration was 0.5 μM p38-alpha kinase and 20 μM small molecule. The final protein and buffer solution was mixed gently using a pipetter to minimize denaturing due to over aggressive mixing. The final solution was transferred to a 50 μL cuvette for analysis.
The protein and buffer solution was mixed gently using a pipetter to minimize denaturing due to over aggressive mixing. The final solution was transferred to a 50 μL cuvette for analysis.
as §4

## CC(C)(C)c1cc(NC(=O)Nc2cccc(Cl)c2Cl)n(-c2cccc(CC(N)=O)c2)n1 [Example 69]
[1]; doubly phosphorylated vs unphosphorylated p38-alpha, >1.0 = preference for unphosphorylated form
  Ratio IC50s: 1.2
[1]; unphosphorylated p38-alpha kinase
  pIC50: 8.05
[2]
  pIC50: 7.96
[3]
  ΔTm (° C.) relative to unphosphorylated apo p38: 13.1 °C
[4]
  ΔTm (° C.) relative to doubly phosphorylated p38: 9.1 °C
